The data set in a line: Frozen (−20° C.) short-term stability in cholestyramine-treated human saliva. Particulars: individual values, run 33.

Several values for one entry are separate records, joined by “and”; a condition that tells them apart may be missing. Identical values can stand only once.

Consider `C[C@H](CCC(=O)O)[C@H]1CC[C@H]2[C@@H]3[C@H](O)C[C@@H]4C[C@H](O)CC[C@]4(C)[C@H]3C[C@H](O)[C@]12C` [Cholic Acid, Cholic acid], for which the “Concentration after frozen (−20° C.) storage” value (from here on “Concentration after frozen”) (Storage period 1 Day, QC-High, nominal 80.0 ng/mL) was 76.1 ng/mL and 77.8 ng/mL and 69.8 ng/mL and 75.0 ng/mL; the “Concentration after frozen” value (Storage period 1 Day, QC-LLOQ, nominal 0.500 ng/mL) was 0.466 ng/mL and 0.497 ng/mL and 0.486 ng/mL and 0.533 ng/mL; the “Concentration after frozen” value (Storage period 1 Day, QC-Mid, nominal 8.00 ng/mL) is 7.09 ng/mL and 7.67 ng/mL and 7.70 ng/mL and 7.64 ng/mL; the “Concentration after frozen” value (Storage period 2 Days, QC-High, nominal 80.0 ng/mL) was 74.6 ng/mL and 77.9 ng/mL and 72.3 ng/mL and 75.5 ng/mL; the “Concentration after frozen” value (Storage period 2 Days, QC-LLOQ, nominal 0.500 ng/mL) is 0.535 ng/mL and 0.561 ng/mL and 0.555 ng/mL and 0.591 ng/mL; the “Concentration after frozen” value (Storage period 2 Days, QC-Mid, nominal 8.00 ng/mL) is 7.43 ng/mL and 7.73 ng/mL and 7.80 ng/mL and 7.90 ng/mL.

Source of the values: patent publication US20200138854A1, “Method of Detecting and Quantifying Bile Acid from Saliva” (Ironwood Pharmaceuticals, Inc., priority 2017, published 2020).
